Measured values taken from publication PMC5011342 (2016).

Columns and labels:
expanded OPCs = details: rat
[1] = test system: acutely dissociated and purified rat OPCs; assay: Acute OL differentiation assay (MBP expression/cell, immunofluorescent image quantification)

CCN(Cc1ccncc1)C(=O)C(CO)c1ccccc1 (centres unmarked) [Tropicamide]
0.1 µM (% DMSO) (expanded OPCs): 96.3 % DMSO | 1 µM (% DMSO) (expanded OPCs): 89.1 % DMSO | 10 µM (% DMSO) (expanded OPCs): 86.0 % DMSO | activation at 2 µM ([1]; read-out: 2 uM (% Quet)): 1.2% | activation at 10 µM ([1]; read-out: 10 uM (% Quet)): 7.2%
